Results published in patent US12233083B2, “Methods for the use of 5′-adenosine diphosphate ribose (ADPR)” (Invirsa, Inc., priority 2018, dated 2025).
Some compounds may have been tested in ways that are not shown here.

The chains behind the UniProt entries cited, without tags or fusion partners.
UniProt P53686, whole entry: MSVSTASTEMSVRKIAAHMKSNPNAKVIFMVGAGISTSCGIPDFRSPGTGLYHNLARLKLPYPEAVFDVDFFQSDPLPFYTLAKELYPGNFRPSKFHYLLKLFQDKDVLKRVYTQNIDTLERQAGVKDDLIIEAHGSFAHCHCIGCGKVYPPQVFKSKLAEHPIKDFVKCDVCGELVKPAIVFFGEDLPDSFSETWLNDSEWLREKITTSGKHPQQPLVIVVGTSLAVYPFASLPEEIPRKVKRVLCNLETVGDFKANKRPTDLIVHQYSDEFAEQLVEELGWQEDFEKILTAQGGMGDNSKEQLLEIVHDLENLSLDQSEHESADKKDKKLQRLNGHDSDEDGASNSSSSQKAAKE
UniProt Q8N6T7, whole entry: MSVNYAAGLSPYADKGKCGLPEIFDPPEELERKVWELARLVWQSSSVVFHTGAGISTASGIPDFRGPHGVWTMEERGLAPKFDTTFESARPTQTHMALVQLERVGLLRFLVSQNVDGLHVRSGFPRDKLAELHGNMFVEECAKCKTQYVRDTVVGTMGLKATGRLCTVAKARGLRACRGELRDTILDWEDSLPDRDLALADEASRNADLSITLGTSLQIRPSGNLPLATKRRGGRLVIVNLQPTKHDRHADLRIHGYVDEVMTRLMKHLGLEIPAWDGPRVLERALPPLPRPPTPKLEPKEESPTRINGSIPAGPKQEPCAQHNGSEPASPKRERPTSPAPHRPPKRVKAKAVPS

Assays:
Hst2 = Hst2 (Saccharomyces cerevisiae, UniProt P53686); settings: Khan and Lewis, 2005; cited from earlier work
Sirt6 = Sirt6 (Homo sapiens, UniProt Q8N6T7); settings: Cerep/Eurofins Sirt6 assay, Michishita et al., 2008; cited from earlier work
Vero cells = assay: Toxicity grade on Vero cell monolayers at end of plaque assay

For 5′-adenosine diphosphate ribose, the “effect on the deacetylation reaction of Hst2” value (Hst2) is listed as “inhibit” and the “concentrations at which ADPR inhibits Sirt6 deacetylation activity” value (Sirt6) is listed as “greater than 1 mM”.

For “Adenosine 5′-diphosphoribose Sodium Salt”, the “effect on Vero cell monolayer judged under the microscope prior to fixation” value (Vero cells; 3 mg/ml) was “not affected”, the “Toxicity Grade on Vero Cells” value (Vero cells; Sample 10 μg/ml) was 0 and the “Toxicity Grade on Vero Cells” value (Vero cells; Sample 30 μg/ml) was 0. The “Toxicity Grade on Vero Cells” value (Vero cells; Sample 100 μg/ml) was 0, the “Toxicity Grade on Vero Cells” value (Vero cells; Sample 300 μg/ml) was 0 and the “Toxicity Grade on Vero Cells” value (Vero cells; Sample 1 mg/ml) was 0. The “Toxicity Grade on Vero Cells” value (Vero cells; Sample 3 mg/ml) was 0.
